# Assay results published in EP3760204A1, “MEDICAMENT FOR PREVENTION OR TREATMENT OF HUNTINGTON'S DISEASE” (Medizinische Universität Graz, priority 2019, dated 2021).
# System: TFEB
# Conditions: shPXR HepG2 cells, 50µM; Figure 7D
# Description: Western blot: Protein lysate was generated by homogenization (Magnalyzer, Roche) of tissue or cell pellet in homogenization buffer with protease and phosphatase inhibitors (Halt tablets, Invitrogen). After homogenization, lysates were sonicated 2x for 10" each. Lysates were then centrifuged for 10 min at 4°C and the supernatant was subjected to BCA protein estimation (Thermo Fisher). Equal amounts of lysate were loaded to self-made acrylamide gels. After separation, the protein was transferred to a PVDF membrane with semi-dry transfer.
smiles,measurement,value
CO[C@H]1/C=C/O[C@@]2(C)Oc3c(C)c(O)c4c(O)c(c(/C=N/N5CCN(C)CC5)c(O)c4c3C2=O)NC(=O)/C(C)=C\C=C\[C@H](C)[C@H](O)[C@@H](C)[C@@H](O)[C@@H](C)[C@H](OC(C)=O)[C@@H]1C [rifampicin],TFEB protein expression in shPXR cells,not inducible
